{
  "sequences": {"note": "By UniProt entry, the sequences of proteins in these tests, tags left out. Residues count along the entry.", "UniProt P52333, 811-1103 limits assumed": "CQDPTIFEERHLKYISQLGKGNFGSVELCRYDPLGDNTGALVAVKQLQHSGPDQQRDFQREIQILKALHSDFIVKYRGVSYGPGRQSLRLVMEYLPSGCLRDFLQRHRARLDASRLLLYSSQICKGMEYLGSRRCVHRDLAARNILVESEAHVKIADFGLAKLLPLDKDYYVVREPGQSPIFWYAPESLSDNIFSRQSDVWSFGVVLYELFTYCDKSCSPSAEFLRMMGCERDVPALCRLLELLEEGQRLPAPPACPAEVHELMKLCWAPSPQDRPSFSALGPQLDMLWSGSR"},
  "source": "patent USRE47221E1",
  "about": "“Tricyclic compounds” (AbbVie Inc., priority 2009, dated 2019)",
  "target": "Jak3 (Homo sapiens, UniProt P52333)",
  "experiment": "Jak3 enzyme data for selected compounds",
  "assay_type": "biochemical",
  "settings": "read-out: JAK3 enzyme IC50",
  "data": [
    {"smiles": "O=S(=O)(CCC(F)(F)F)N1CCCCC12CN(c1ncc3cnc4[nH]ccc4n13)C2", "values": [
      {"measurement": "IC50", "result": "> 1000", "unit": "nM"}
    ]},
    {"smiles": "C[C@@H]1C[C@H](NS(=O)(=O)N2CCC[C@@H]2C(F)(F)F)C[C@@H]1c1ncc2cnc3[nH]ccc3n12", "values": [
      {"measurement": "IC50", "result": "< 100", "unit": "nM"}
    ]}
  ]
}
